{"source": "patent US7153495B2", "about": "“Fragrance friendly and cost effective antiperspirant actives and method of making the same” (Reheis, Inc., priority 2004, dated 2006)", "assay": "Fragrance compatibility study (colour formation with fragrances, Macbeth Color Spectrophotometer and visual)", "format": "physicochemical", "conditions": "for ΔRG @ 45° C. / ΔYB @ 45° C.: 0.75% perfume, 20% active", "description": "It is known that fragrances in antiperspirants can discolor over time due to the acidic nature and high transition metals concentration especially Fe, Cr, Co, Mn, Cu, and Ni. It is also known that glycine can initiate Schiff base reaction with aldehydes present in fragrances. […] Fragrance dispersions were prepared as follows: 0.75% perfume, 1.0% Arlasolve 200, 20% antiperspirant active (on an anhydrous basis), q.s. DI water. Samples were stored at 45° C. for four weeks and were analyzed for color visually as well as using Macbeth Color Spectrophotometer. Aluminum zirconium tetrachlorohydrex was compared against aluminum zirconium penta and octa salts of Examples 1 and 2. Color was measured as ΔYB (yellow blue) and ΔRG (red green) for all the fourteen fragrances and three actives.", "key": {"[1]": {"conditions": "average of 14 fragrances, four weeks at 45° C."}, "[2]": {"conditions": "fragrance AC 10278/498988, four weeks at 45° C."}, "[3]": {"conditions": "fragrance Bell J-8381, four weeks at 45° C."}, "[4]": {"conditions": "fragrance Drom99-920, four weeks at 45° C."}, "[5]": {"conditions": "fragrance FFS 52847, four weeks at 45° C."}, "[6]": {"conditions": "fragrance Firm. 430–507, four weeks at 45° C."}, "[7]": {"conditions": "fragrance Noville AN 119738, four weeks at 45° C."}, "[8]": {"conditions": "fragrance Q-26238, four weeks at 45° C."}, "[9]": {"conditions": "fragrance Q-26239, four weeks at 45° C."}, "[10]": {"conditions": "fragrance Q-26240, four weeks at 45° C."}, "[11]": {"conditions": "fragrance Q-26241, four weeks at 45° C."}, "[12]": {"conditions": "fragrance Q-26242, four weeks at 45° C."}, "[13]": {"conditions": "fragrance Quest Q-14072, four weeks at 45° C."}, "[14]": {"conditions": "fragrance SM 25105D, four weeks at 45° C."}, "[15]": {"conditions": "fragrance Takasago RM 1595, four weeks at 45° C."}}}
{"substance": "aluminum zirconium penta salt [Example 2]", "values": [{"measurement": "discoloration compared with tetrasalt", "setting": "14 fragrances, four weeks of shelf aging at 45° C., visual and instrumental", "result": "less discoloration"}, {"measurement": "ΔRG @ 45° C., Average", "setting": "[1]", "result": 6.8}, {"measurement": "ΔYB @ 45° C., Average", "setting": "[1]", "result": 8.21}, {"measurement": "ΔRG @ 45° C.", "setting": "[2]", "result": 2.30}, {"measurement": "ΔYB @ 45° C.", "setting": "[2]", "result": 4.40}, {"measurement": "ΔRG @ 45° C.", "setting": "[3]", "result": 3.19}, {"measurement": "ΔYB @ 45° C.", "setting": "[3]", "result": 5.36}, {"measurement": "ΔRG @ 45° C.", "setting": "[4]", "result": 2.53}, {"measurement": "ΔYB @ 45° C.", "setting": "[4]", "result": 4.16}, {"measurement": "ΔRG @ 45° C.", "setting": "[5]", "result": 6.18}, {"measurement": "ΔYB @ 45° C.", "setting": "[5]", "result": 6.70}, {"measurement": "ΔRG @ 45° C.", "setting": "[6]", "result": 12.66}, {"measurement": "ΔYB @ 45° C.", "setting": "[6]", "result": 13.52}, {"measurement": "ΔRG @ 45° C.", "setting": "[7]", "result": 12.92}, {"measurement": "ΔYB @ 45° C.", "setting": "[7]", "result": 13.19}, {"measurement": "ΔRG @ 45° C.", "setting": "[8]", "result": 4.69}, {"measurement": "ΔYB @ 45° C.", "setting": "[8]", "result": 6.31}, {"measurement": "ΔRG @ 45° C.", "setting": "[9]", "result": 4.93}, {"measurement": "ΔYB @ 45° C.", "setting": "[9]", "result": 8.07}, {"measurement": "ΔRG @ 45° C.", "setting": "[10]", "result": 4.92}, {"measurement": "ΔYB @ 45° C.", "setting": "[10]", "result": 5.64}, {"measurement": "ΔRG @ 45° C.", "setting": "[11]", "result": 3.71}, {"measurement": "ΔYB @ 45° C.", "setting": "[11]", "result": 6.60}, {"measurement": "ΔRG @ 45° C.", "setting": "[12]", "result": 6.42}, {"measurement": "ΔYB @ 45° C.", "setting": "[12]", "result": 10.32}, {"measurement": "ΔRG @ 45° C.", "setting": "[13]", "result": 11.30}, {"measurement": "ΔYB @ 45° C.", "setting": "[13]", "result": 12.08}, {"measurement": "ΔRG @ 45° C.", "setting": "[14]", "result": 9.07}, {"measurement": "ΔYB @ 45° C.", "setting": "[14]", "result": 8.65}, {"measurement": "ΔRG @ 45° C.", "setting": "[15]", "result": 10.38}, {"measurement": "ΔYB @ 45° C.", "setting": "[15]", "result": 9.94}]}
